Earlier results as cited in US20080287669A1, “METHODS AND COMPOSITIONS FOR IDENTIFYING COMPOUNDS USEFUL IN NUCLEIC ACID PURIFICATION” (priority 2007, published 2008).
Where two headings read alike, the source gives them in different places.

Compound | Dielectric Constant (DC) (Table 1, soluble organic solvents) | Dielectric Constant (DC) (Table 3, miscible organic solvents)
CCCCOP(=O)(OCCCC)OCCCC | 8.34 | 
C1CN1 |  | 18.3
